The text below walks through data of US20030138508A1 (priority 2001, published 2003).

A short description of the data set: flashbar vaporization of THC, HPLC of aerosol. Particulars: about 1 mg coated, about 400° C. within about 200 milliseconds; cannabinol primary impurity. The format is physicochemical.

On to `CCCCCc1cc(O)c2c(c1)OC(C)(C)[C@@H]1CCC(C)=C[C@@H]21` [THC, Δ^9-Tetrahydrocannabinol], for which the “purity of aerosol after vaporization” value is listed as “approximately 98%”.
